In experiment [1] the test system is PFOR (pyruvate ferredoxin oxidoreductase). Description: Direct PFOR enzyme assay. It is filed as biochemical. The note with it: Thiophene analogues table. The procedure:
(§1) Representative compounds of the invention were tested in a series of assays against a series of organisms as described above. […] The organisms tested include, C. difficile, H. pylori, C. jejuni, MRSA, S. epidermidis, and E. coli. S. epidermidis and E. coli were tested in the plank and biofilm assay. A disk diffusion assay was also used for C. difficile. Direct PFOR enzyme assays were also performed. All analogues and derivatives were not tested on every organism in every type of assay (the “-” in each table means that it was not tested).

The subject of the next experiment is E. coli. Description: MIC testing by broth dilution, E. coli plank. The class given is cell-based. The settings on record: Escherichia coli, read-out: MIC E. coli Plank. The procedure: (§2) A standard broth dilution protocol was used in 96 well microplates containing a standard dilution of the microorganism to be tested in 100 microliters of the appropriate medium. Appropriate medium: E. coli, LB medium; Staphylococcus strains, Trypticase Soy; and for H. pylori and C. jejuni, Brain Heart Infusion. The compounds to be tested were set at 32 μg/ml in 200 microliters in well one and then serially diluted to provide a range from 32 to 0.06. The wells were scored visually at 24 h. The well where there was no growth was recorded as the MIC. Clostridium difficile was tested by agar diffusion and disk diffusion (Kirby Bower) methods under anaerobic conditions on Wilkins Chalgrin agar. In these assays, zone of inhibited growth was measured and compared by relative ratio to the zone recorded for NTZ.
as §1

For experiment [2], the system named is C. difficile. The experiment in a line: Disk diffusion (Kirby Bower), C. difficile. The class given is cell-based, Clostridium difficile. The settings on record: Nitazoxanide = 100; Thiophene analogues table. The procedure:
as §2, §1

Another experiment relates to E. coli biofilm. Description: E. coli biofilm assay (activity tables). The class given is cell-based. The settings on record: Escherichia coli, read-out: MIC E. coli Biofilm. Here is the method: A quantitative biofilm assay was used to determine the effect of NTZ on biofilm formation (41). Strain 042 was grown overnight at 37° C. with shaking and inoculated 1:100 in 200 μl culture medium in Costar 96-well, flat-bottom, polystyrene microtiter plates containing appropriate concentrations of NTZ. Plates were incubated statically at 37° C. in a humidified incubator. At 24 h, bacterial growth was measured by either transferring […] aliquots to another microtiter plate to determine turbidity or by diluting 100 μl aliquots 1:100 in 9.9 ml PBS for quantitative plate counts on LB medium. Bacterial counts in triplicate are reported as cfu/ml. Biofilm was visualized following staining with 0.5% crystal violet (41) and the absorbance was read at 570 nm using a microplate reader (Molecular Dynamics). All experiments were in triplicate and reported as mean and standard deviation.
A standard broth dilution protocol was used in 96 well microplates containing a standard dilution of the microorganism to be tested in 100 microliters of the appropriate medium. […] The wells were scored visually at 24 h. The well where there was no growth was recorded as the MIC. […] In these assays, zone of inhibited growth was measured and compared by relative ratio to the zone recorded for NTZ. […]

The subject of the next experiment is H. pylori. The experiment in a line: MIC testing by broth dilution, H. pylori. The class given is cell-based. The note with it: Helicobacter pylori, read-out: MIC H. pylori. The procedure:
as §2, §1

Another experiment has as its system S. epidermidis. Description: MIC testing by broth dilution, S. epidermidis plank. It is filed as cell-based. The note with it: Staphylococcus epidermidis, read-out: MIC S. epidermidis Plank. Here is the method: as §2, §1
In experiment [3] the test system is C. difficile. Description: MIC by agar dilution, C. difficile. The settings on record: Clostridioides difficile, read-out: MIC C. difficile. It is filed as cell-based, Clostridium difficile. Here is the method: A standard broth dilution protocol was used in 96 well microplates containing a standard dilution of the microorganism to be tested in 100 microliters of the appropriate medium. Appropriate medium: E. coli, LB medium; Staphylococcus strains, Trypticase Soy; and for H. pylori and C. jejuni, Brain Heart Infusion. The compounds to be tested were set at 32 μg/ml in 200 microliters in well one and then serially diluted to provide a range from 32 to 0.06. The wells were scored visually at 24 h. The well where there was no growth was recorded as the MIC. […]
as §1

The test system of the next experiment is MRSA. The experiment in a line: MIC testing by broth dilution, MRSA. The class given is cell-based. The settings on record: Staphylococcus aureus, read-out: MIC MRSA. The procedure: as §2, §1

In brackets after ≈: the same amount, converted by molar mass.

With `O=C(Nc1ncc([N+](=O)[O-])s1)c1ccc(Cl)s1` [VPC16a1011, 5-Chloro-N-(5-nitrothiazol-2-yl)thiophene-2-carboxamide], the “PFOR inhibition relative to nitazoxanide (=100)” value in experiment [1] was determined as 65%. The MIC stood at 110 µM (≈ 32 µg/mL) in the experiment with E. coli; 0.9 µM (≈ 0.261 µg/mL) in the experiment with E. coli biofilm; 5.2 µM (≈ 1.51 µg/mL) in the experiment with H. pylori; 27.6 µM (≈ 8 µg/mL) in the experiment on S. epidermidis; 6.9 µM (≈ 2 µg/mL) in the experiment with C. difficile [3]; 10.4 µM (≈ 3.01 µg/mL) in the experiment with MRSA. Also, the “Disk Diff (%) C. difficile” value in the experiment with C. difficile [2] was 89%.

The record behind these values is patent publication US8835644B2, “Broad spectrum benzothiophene-nitrothiazolide and other antimicrobials” (University of Virginia Patent Foundation, priority 2009, dated 2014).
